Laboratory results: article PMC5943959, “Potent and Selective Carboxylic Acid Inhibitors of Tumor-Associated Carbonic Anhydrases IX and XII” (Molecules : A Journal of Synthetic Chemistry and Natural …, 2017)

Chains of the proteins cited; added tags and fusions are not shown. Residues count along the entry.
UniProt O43570, 25-354: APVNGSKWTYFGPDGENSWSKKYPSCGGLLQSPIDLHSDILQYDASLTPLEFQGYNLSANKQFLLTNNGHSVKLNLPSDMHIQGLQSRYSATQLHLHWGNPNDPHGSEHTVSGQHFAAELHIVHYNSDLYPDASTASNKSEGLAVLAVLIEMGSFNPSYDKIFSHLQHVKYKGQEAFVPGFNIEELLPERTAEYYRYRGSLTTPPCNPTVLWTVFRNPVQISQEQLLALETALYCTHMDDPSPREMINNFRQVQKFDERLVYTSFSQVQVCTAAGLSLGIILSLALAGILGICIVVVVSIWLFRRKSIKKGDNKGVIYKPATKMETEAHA

Tests used:
hCA XII = target: T1, hCA XII (Homo sapiens, UniProt O43570); assay: stopped-flow CO2 hydrase assay, hCA XII; assay type: biochemical
T1 construct: made in house

hCA IX = target: T2, hCA IX (Homo sapiens, UniProt Q16790); assay: stopped-flow CO2 hydrase assay, hCA IX; assay type: biochemical
T2 construct: made in house

Structure (SMILES)	Selectivity Index hCA II/hCA XII (hCA XII)	Selectivity Index hCA II/hCA IX (hCA IX)
CC(=O)Nc1cccc(Nc2c([N+](=O)[O-])cc(C(=O)O)cc2[N+](=O)[O-])c1 [Compound 12]	>544.1	
O=C(O)c1ccc(Sc2nnc(Sc3ccc(C(=O)O)cc3[N+](=O)[O-])s2)c([N+](=O)[O-])c1 [Compound 8]	0.9	30.4
